This is an account of results in ChEMBL document CHEMBL1155457, “Discovery of the dual orexin receptor antagonist [(7R)-4-(5-chloro-1,3-benzoxazol-2-yl)-7-methyl-1,4-diazepan-1-yl][5-methyl-2-(2H-1,2,3-triazol-2-yl)phenyl]methanone (MK-4305) for the treatment of insomnia” (J Med Chem, 2010).

Series [1] can be described thus: Ratio of drug level in brain to plasma in rat at 0.25 to 1.5 mg/kg, iv after 30 mins. As to conditions: 0.5 h.
A short description of series [2]: Ratio of drug level in brain to plasma in rat at 0.25 to 2 mg/kg, iv after 30 mins. To be noted: 0.5 h.
Series [3] in a line: Ratio of drug level in brain to plasma in rat at 10 mg/kg, po after 1 hr.

For the molecule `C[C@@H]1CCN(c2ncc3cc(F)ccc3n2)CCN1C(=O)c1ccccc1-n1nccn1`, the BPR in series [1] was found to be 0.4.
Turning to `Cc1ccc(-n2nccn2)c(C(=O)N2CCN(c3nc4cc(Cl)ccc4o3)CC[C@H]2C)c1` [SUVOREXANT], the BPR in series [2] turned out to be 0.6; in series [3], 0.7.
